From PMC3943356 (Bioorganic & medicinal chemistry letters, 2013)

Test system: VGLUT
Assay: Inhibition of 3H-L-Glu uptake into synaptic vesicles prepared from rat brain
Settings: compound at 250 µM; 3H-L-Glu 250 µM

Structure (SMILES)	reduction (block) of L-Glu uptake
C[C@]12CC[C@@H]3c4ccc(OS(=O)(=O)O)cc4CC[C@H]3[C@@H]1CCC2=O [Estrone sulfate]	50%
CC(=O)[C@H]1CC[C@H]2[C@@H]3CC[C@@H]4C[C@H](O)CC[C@]4(C)[C@H]3CC[C@]12C [Pregnanolone]	did not block L-Glu uptake to any appreciable level

Structures can show the parent of a compound that is named as a salt.
